# Only a part is listed here, and it is no random draw. The source made the active and inactive calls. No stated cut-off is given here; in the data, active means inhibition above about 50%; inactive means the rest.
# Target: Dual specificity tyrosine-phosphorylation-regulated kinase 1A (Rattus norvegicus) (UniProt Q63470)
# Experiment: inhibition of Dyrk1A kinase activity – biochemical, single point, plate reader, primary screen (AID 504441);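 further: plate controls were vehicle with enzyme for no effect and no enzyme for full effect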
# Settings: ADP-Glo luminescence, NFATc1 peptide, at 12.5 µM, hits give high values
row,SMILES,inhibition
1,Clc1ccc(Cl)c(NC2=NCC(CBr)S2)c1 (centres undefined),inactive: -1.98%
2,CN1CCCC(OC(=O)C(c2ccccc2)c2ccccc2)C1 (centres undefined),inactive: -1.09%
3,COc1ccccc1OP(=O)(Nc1ccc(C)cn1)Oc1ccccc1OC,inactive: 1.53%
4,CN(C(=O)Cc1ccc(Cl)c(Cl)c1)[C@H]1CCCC[C@H]1N1CCCC1,inactive: -3.16%
5,Cc1ccc(N/C(=N/P(=O)(N2CCOCC2)N2CCOCC2)N2CCOCC2)cc1,inactive: 2.46%
6,NC(=O)c1cc([N+](=O)[O-])cc([N+](=O)[O-])c1N,inactive: 8.58%
7,Oc1ccccc1CNc1ccccn1,inactive: -2.66%
8,O=C(NC(Sc1ccncn1)C(Cl)(Cl)Cl)c1ccccc1 (centres undefined),inactive: -4.61%
9,CC(C)CC(=O)NC(Sc1ccc(Cl)cc1)C(Cl)(Cl)Cl (centres undefined),inactive: 4.87%
10,Nc1cc(N)c2nonc2c1[N+](=O)[O-],inactive: 22.5%
11,CCOP(=O)(Nc1ccccc1)OCC,inactive: 10.3%
12,Cc1cc(SC(NC(=O)c2ccc(F)cc2)C(Cl)(Cl)Cl)ncn1 (centres undefined),inactive: -0.763%
13,CN(C(=O)Cc1ccc(Cl)c(Cl)c1)[C@H]1CCCC[C@@H]1N1CCCC1,inactive: 0.184%
14,Cc1ccc(NP(=O)(Oc2ccccc2F)Oc2ccccc2F)nc1,inactive: -1.53%
15,O=P(Nc1nc2ccc(Cl)cc2s1)(c1ccccc1)c1ccccc1,inactive: 2.48%
16,O=C(O)c1ccccc1[As](=O)(O)O,inactive: 2.89%
17,CC(=O)Nc1ccc([As](=O)(O)O)cc1,inactive: 1.63%
18,CCCC1OP(N)(=O)OCC1CC (centres undefined),inactive: -5.34%
19,Nc1cccc2ccc([As](=O)(O)O)cc12,inactive: -1.17%
20,CCN(N=Nc1nonc1N)c1nonc1N,inactive: 15.8%
21,O=C(Nc1cc([As](=O)(O)O)ccc1O)c1ccccc1,inactive: 2.93%
22,O=P1(N(CCCl)CCCl)OCCCS1 (centres undefined),inactive: 4.88%

row,SMILES,inhibition
1,O=C(O)CNc1ccc([As](=O)(O)O)cc1,inactive: 3.25%
2,O=[N+]([O-])c1cccc(NC2=NCC(CBr)S2)c1 (centres undefined),inactive: 11.8%
3,COC(=O)C1(C)COP(=O)(Nc2ccccc2)OC1 (centres undefined),inactive: 4.27%
4,O=[N+]([O-])c1ncn(CCn2ncnc2[N+](=O)[O-])n1,inactive: -1.51%
5,CC(C)(C)C(=O)NC(Sc1ccncn1)C(Cl)(Cl)Cl (centres undefined),inactive: 2.63%
6,O=[N+]([O-])c1cc([N+](=O)[O-])c(CCNc2ccccc2)c([N+](=O)[O-])c1,inactive: -6.29%
7,CCc1nc2c(n1)c1c(non1O)c1c2no[n+]1[O-],inactive: 16.9%
8,CC(=O)N1C2C3N(C(C)=O)C1C1N(C(C)=O)C(C(N1C(C)=O)N3C(C)=O)N2C(C)=O,inactive: 14.8%
9,O=[N+]([O-])c1cccc2n[nH]nc12,inactive: -0.793%
10,CC1CCN(C(=O)Oc2c(Cl)cc(Cl)c3cccnc23)CC1,inactive: 7.36%
11,CC(C)=N/N=C(\N)N[N+](=O)[O-],inactive: 0.306%
12,CN(C)C(=O)OCCc1n(C)cc[n+]1C,inactive: -6.14%
13,CCN(/C(=N/P(=O)(N1CCOCC1)N1CCOCC1)N1CCOCC1)c1ccc(OC)cc1,inactive: 1.14%
14,Nc1ccc([As](=O)(O)c2ccc(N)cc2)cc1,inactive: 3.11%
15,C[N+]1=C2C=CC=CC=C2SC12C([N+](=O)[O-])=CC([N+](=O)[O-])=C[C-]2[N+](=O)[O-] (centres undefined),inactive: 4.82%
16,c1nnnn1CCn1cnnn1,inactive: -0.426%
17,O=P(Nc1nccs1)(c1ccccc1)c1ccccc1,inactive: -4.3%
18,CC(C)C(=O)NC(Sc1ccccc1)C(Cl)(Cl)Cl (centres undefined),inactive: 2.06%
19,O=P(Nc1nc2ccccc2s1)(c1ccccc1)c1ccccc1,inactive: 3.39%
20,C[C@H]1OP(=O)(Oc2ccccc2)[C@H](O)[C@H](O)[C@H]1N=[N+]=[N-] (some centres undefined),inactive: 0.172%
21,CN(C)C1(CNC(=O)c2ccc(Cl)c(S(N)(=O)=O)c2)CCCCC1,inactive: -3.48%
22,O=P(Nc1ccccn1)(c1ccc(Br)cc1)c1ccc(Br)cc1,inactive: -0.861%

row,SMILES,inhibition
1,COc1ccc(N)c([N+](=O)[O-])c1[N+](=O)[O-],inactive: -3.23%
2,O=C(OC1CN2CCC1CC2)c1cccc(Cl)c1 (centres undefined),inactive: -1.42%
3,Nc1ccc([As](=O)(O)c2ccc([N+](=O)[O-])cc2)cc1,inactive: -1.2%
4,C(Cc1nn[nH]n1)Cc1nn[nH]n1,inactive: 2.37%
5,O=[As](O)(c1ccccc1)c1ccc(O)cc1,inactive: 4.77%
6,O=[N+]([O-])c1ncn(CCn2cnc([N+](=O)[O-])n2)n1,inactive: 6.2%
7,CC(=O)NC(SC(=S)N(C)C)C(Cl)(Cl)Cl (centres undefined),inactive: -5.39%
8,O=[N+]([O-])c1ccc(O)c(/C=N/Nc2ccc([N+](=O)[O-])cc2[N+](=O)[O-])c1,inactive: 0.614%
9,O=P1(N(CCCl)CCCl)OCCC2CCCCN21 (centres undefined),inactive: 12.8%
10,c1ccc(-c2nn[nH]n2)c(-c2nn[nH]n2)c1,inactive: -3.12%
11,Cc1ccc(NP(=O)(Oc2cccc(C)c2)Oc2cccc(C)c2)nc1,inactive: -7.53%
12,O=C(NC1CCS(=O)(=O)C1)NP(=S)(Oc1ccccc1)Oc1ccccc1 (centres undefined),inactive: -2.54%
13,CCNC(=S)/N=C(\N)N[N+](=O)[O-],inactive: -5.59%
14,CN(C)C(=O)Oc1noc2ccccc12,inactive: 11.9%
15,O=c1c2cc([N+](=O)[O-])ccc2[nH]c2c([N+](=O)[O-])cc([N+](=O)[O-])cc12,inactive: -2.81%
16,O=C(OC1CN2CCC1CC2)c1ccccc1 (centres undefined),inactive: -2.84%
17,CCC(=O)N1C2C3N(C(=O)CC)C1C1N(C(=O)CC)C(C(N1C(=O)CC)N3C(=O)CC)N2C(=O)CC,inactive: -8.23%
18,COC(=O)c1cc2c(s1)N=C(c1ccccc1)N(C)P2(=O)N1CCOCC1 (centres undefined),inactive: -9.87%
19,Cc1ccc(OP(=O)(Nc2ccccn2)Oc2ccc(C)cc2)cc1,inactive: 0.595%
20,CC(=O)NC(SC(=S)N(CC(C)C)CC(C)C)C(Cl)(Cl)Cl (centres undefined),inactive: -2.84%
